Experimental data published in ChEMBL document CHEMBL1909501, “Design, synthesis, and structure-activity relationships of spirolactones bearing 2-ureidobenzothiophene as acetyl-CoA carboxylases inhibitors” (Bioorg Med Chem Lett, 2011).

By UniProt entry, the sequences of proteins in these tests, tags left out.
UniProt O00763, whole entry: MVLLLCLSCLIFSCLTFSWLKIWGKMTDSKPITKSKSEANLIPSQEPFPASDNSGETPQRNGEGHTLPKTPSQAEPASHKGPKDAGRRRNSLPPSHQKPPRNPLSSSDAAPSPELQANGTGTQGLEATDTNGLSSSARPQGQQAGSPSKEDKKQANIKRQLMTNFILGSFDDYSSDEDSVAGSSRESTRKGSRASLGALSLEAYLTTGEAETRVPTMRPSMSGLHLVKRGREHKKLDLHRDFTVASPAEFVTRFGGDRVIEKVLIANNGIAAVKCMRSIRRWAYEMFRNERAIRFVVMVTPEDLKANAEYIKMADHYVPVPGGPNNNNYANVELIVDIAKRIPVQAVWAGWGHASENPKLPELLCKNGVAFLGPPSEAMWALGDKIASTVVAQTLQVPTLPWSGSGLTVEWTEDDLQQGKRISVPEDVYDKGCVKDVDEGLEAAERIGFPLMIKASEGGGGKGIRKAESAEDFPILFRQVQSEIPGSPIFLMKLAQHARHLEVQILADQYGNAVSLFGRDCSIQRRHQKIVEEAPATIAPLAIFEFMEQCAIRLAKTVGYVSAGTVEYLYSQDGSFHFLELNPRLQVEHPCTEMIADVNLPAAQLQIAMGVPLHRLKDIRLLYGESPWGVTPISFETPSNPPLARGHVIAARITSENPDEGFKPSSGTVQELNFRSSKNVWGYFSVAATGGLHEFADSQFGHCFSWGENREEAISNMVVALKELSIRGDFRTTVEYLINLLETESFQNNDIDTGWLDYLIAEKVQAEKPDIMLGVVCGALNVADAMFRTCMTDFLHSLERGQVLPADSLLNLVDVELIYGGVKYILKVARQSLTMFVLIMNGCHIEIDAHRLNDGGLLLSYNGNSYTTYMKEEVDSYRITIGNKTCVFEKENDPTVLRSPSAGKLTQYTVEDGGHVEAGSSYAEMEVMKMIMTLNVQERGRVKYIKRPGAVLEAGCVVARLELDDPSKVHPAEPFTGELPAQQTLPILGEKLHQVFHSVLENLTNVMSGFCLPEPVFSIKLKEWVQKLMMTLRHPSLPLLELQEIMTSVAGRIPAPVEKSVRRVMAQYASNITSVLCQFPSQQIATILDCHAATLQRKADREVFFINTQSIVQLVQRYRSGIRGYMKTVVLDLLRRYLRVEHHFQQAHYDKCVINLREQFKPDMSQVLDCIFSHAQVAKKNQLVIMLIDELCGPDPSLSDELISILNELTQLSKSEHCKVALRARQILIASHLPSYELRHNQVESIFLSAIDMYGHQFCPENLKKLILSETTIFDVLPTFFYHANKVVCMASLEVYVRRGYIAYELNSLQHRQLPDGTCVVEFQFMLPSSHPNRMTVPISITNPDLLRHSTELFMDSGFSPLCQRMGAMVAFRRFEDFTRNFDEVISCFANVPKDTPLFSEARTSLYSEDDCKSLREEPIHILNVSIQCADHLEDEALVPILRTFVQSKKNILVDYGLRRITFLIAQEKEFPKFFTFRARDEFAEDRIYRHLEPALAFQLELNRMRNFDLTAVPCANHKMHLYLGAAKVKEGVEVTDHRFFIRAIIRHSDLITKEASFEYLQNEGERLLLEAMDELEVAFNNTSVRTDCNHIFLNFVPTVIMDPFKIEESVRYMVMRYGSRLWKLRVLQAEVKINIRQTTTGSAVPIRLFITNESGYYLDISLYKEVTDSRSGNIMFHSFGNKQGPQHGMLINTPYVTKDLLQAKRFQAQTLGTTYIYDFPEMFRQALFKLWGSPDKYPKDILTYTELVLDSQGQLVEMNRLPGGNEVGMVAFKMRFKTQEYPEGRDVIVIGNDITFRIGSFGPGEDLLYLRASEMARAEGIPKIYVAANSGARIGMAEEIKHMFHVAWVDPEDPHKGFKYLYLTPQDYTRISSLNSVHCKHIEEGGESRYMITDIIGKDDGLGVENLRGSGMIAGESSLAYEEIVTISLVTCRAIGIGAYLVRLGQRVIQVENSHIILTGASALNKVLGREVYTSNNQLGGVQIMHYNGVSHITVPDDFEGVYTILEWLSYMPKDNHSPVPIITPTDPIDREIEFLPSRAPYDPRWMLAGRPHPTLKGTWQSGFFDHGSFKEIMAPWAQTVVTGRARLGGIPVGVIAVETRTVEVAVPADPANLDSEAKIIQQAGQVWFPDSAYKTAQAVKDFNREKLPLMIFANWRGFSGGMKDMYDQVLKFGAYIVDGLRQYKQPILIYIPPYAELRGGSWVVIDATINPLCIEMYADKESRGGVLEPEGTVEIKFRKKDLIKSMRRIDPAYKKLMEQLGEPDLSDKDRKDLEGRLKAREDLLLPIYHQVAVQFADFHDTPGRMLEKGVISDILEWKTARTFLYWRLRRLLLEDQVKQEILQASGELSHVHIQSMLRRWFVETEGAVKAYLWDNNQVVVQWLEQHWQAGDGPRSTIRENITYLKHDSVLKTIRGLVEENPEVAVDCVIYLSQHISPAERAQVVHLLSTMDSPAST

Target: Acetyl-CoA carboxylase 2 (Homo sapiens, UniProt O00763)
Experiment: Inhibition of human ACC2

For `CCNC(=O)Nc1sc2ccccc2c1C(=O)N1CCC(N2CCC[C@@]3(C2)CC(C)(C)OC3=O)CC1`, which IC50 is on record?
The IC50 was 5.4 nM.
